We go through 1 compound from patent USRE38551E1, “Anticonvulsant enantiomeric amino acid derivatives” (priority 1996, dated 2004).

Read-outs that look alike come from different tables or passages of the source. Marks after values point to notes of the source that are not given here.

This data set has as its system Crl:CD BR Charles River rats. The method, then:
II. Five groups of Crl:CD® BR Charles River rats were each exposed to BAMP or a control substance (0.5% methylcellulose [400 Cps] aqueous solution in distilled water) according to the following dosage schedule:
Group 1—vehicle control (10 males, 10 females), 0 mg/kg/day
Group 2—low (10 males, 10 females), 10 mg/kg/day
Group 3—mid low (10 males, 10 females), 30 mg/kg/day
Group 4—mid high (10 males, 10 females), 100 mg/kg/day
Group 5—high (10 males, 10 females), 300 mg/kg/day
Exposure was by oral gavage, once daily, for a period of at least 30 consecutive days, after which all animals were sacrificed for pathologic evaluation.
All animals were weighed once prior to initiation of dosing and weekly thereafter. Food-fasted (overnight) blood samples for clinical chemistry and hematology were collected at termination. Blood samples were collected from the orbital venous plexus using carbon dioxide (mixed with oxygen) as an anesthetic.
All animals were sacrificed, at the appropriate time, by exsanguination, under barbiturate anesthesia, and all were subjected to a necropsy examination.
Clinical observations were reviewed at necropsy, and all grossly observed abnormalities were entered directly into the computerized data collection system. Adrenals, brain with brainstem, heart, kidneys, liver, ovaries, pituitary, testes with epididymides, and thyroid with parathyroids were weighted from each animal. The pituitary and thyroid with parathyroids were weighed after fixation and all of the other organs were weighed at the time of necropsy.
As required by the protocol, histologic evaluations were conducted on liver only from all animals of Groups 1 (control) and 5 (high). All histologic findings were entered directly into the computerized data capture system. Lesions were graded as to relative severity or degree of involvement (1=minimal, 2=slight, 3=moderate, 4=moderately severe, 5=severe). In general, minimal represents the least consistently recognizable degree of any given histoniorphologic alteration, while severe would represent the most extreme degree reasonably possible, with the other three grades occupying a continuum between the two extremes. The grades are subjective, comparative evaluations, based on morphology alone and are not intended by themselves to imply any degree of functional impairment.

Turning to `COC[C@@H](NC(C)=O)C(=O)NCc1ccccc1` [Ex. 1, 2, (R)-N-Benzyl-2-Acetamide-3-methoxypropionamide], the “LIVER ORGAN WEIGHT, mean” value by setting is: (female, group 2, 10 mg/kg/day, 30 days oral) 6.91 g; (female, group 3, 30 mg/kg/day, 30 days oral) 6.71 g; (female, group 4, 100 mg/kg/day × 30 days oral) 7.88* g; (female, group 5, 300 mg/kg/day × 30 days oral) 7.88* g; (male, group 2, 10 mg/kg/day, 30 days oral) 11.10 g; (male, group 3, 30 mg/kg/day, 30 days oral) 11.48 g. Moreover, the “LIVER ORGAN WEIGHT, mean” value is, setting by setting: (male, group 4, 100 mg/kg/day × 30 days oral) 11.79 g; (male, group 5, 300 mg/kg/day × 30 days oral) 14.45* g.
